Test system: HER3 and P-HER3
Assay: Feedback upregulation of HER3 and P-HER3 by lapatinib in BT474, SKBR3 and MDA453 cells
Type: cell-based, human
Settings: lapatinib 1 μM, trastuzumab 10 μg/ml, SEQ ID NO: 180 5 μM, 0-48 hours
Procedure: The expression level of HER3, P-HER3 (Y1197) and P-HER3 (Y1289) is shown at 0, 1, 4, 24 and 48 hours as indicated for lapitinib-only treated cells (1), lapatinib plus trastuzumab-treated cells (2), lapitinib plus SEQ ID NO: 180-treated cells (3) and SEQ ID NO: 180-only treated cells (4). Lapatinib was used at a concentration of 1 μM, trastuzumab at a concentration of 10 μg/ml, and SEQ ID NO: 180 at a concentration of 5 μM.

trastuzumab [reference compound]
prevention of feedback upregulation of HER3 and P-HER3 expression by lapatinib: not
